Measurements: ChEMBL document CHEMBL5325448, “Design, synthesis and biological evaluation of phosphoroxy quinazoline derivatives as potential EGFRT790M/C797S inhibitors” (Bioorg Med Chem, 2023)

Legend:
[1] = system: Epidermal growth factor receptor (Homo sapiens), P00533 [L858R,T790M,C797S]; assay: Potency index, ratio of brigatinib IC50 to test compound IC50 for inhibition of EGFR L858R/T790M/C797S triple mutant (unknown origin) using TK as substrate incubated for 120 mins in presence of ATP by HTRF assay
[2] = system: Epidermal growth factor receptor (Homo sapiens), P00533 [UNDEFINED MUTATION]; assay: Potency index, ratio of brigatinib IC50 to test compound IC50 for inhibition of EGFR Del19/T790M/C797S triple mutant (unknown origin) using TK as substrate incubated for 120 mins in presence of ATP by HTRF assay

With `COc1cc(N2CCC(N3CC(N(C)C)C3)CC2)c(C)cc1Nc1ncc(Br)c(Nc2ccc3nccnc3c2P(C)(C)=O)n1` the Ratio IC50 [1] was > 30 and the Ratio IC50 [2] was > 10.
